## AlphaSeq binding of Ab-14 light chain variants to a spike HR2 peptide

The measurements come from Li et al. 2023 (doi:10.1038/s41467-023-39022-2) through the FLAb antibody collection.

All variants were tested on one target, the spike HR2 peptide PDVDLGDISGINAS (SARS-CoV-2).

Parent: Ab-14, a human scFv built as VH, the linker GGGGSGGGGSGGGGS, VL. Only the CDRs of the light chain vary.
VH: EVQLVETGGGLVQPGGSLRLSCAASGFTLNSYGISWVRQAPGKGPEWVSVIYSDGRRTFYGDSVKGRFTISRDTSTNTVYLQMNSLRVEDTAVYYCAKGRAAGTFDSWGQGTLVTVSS
VL: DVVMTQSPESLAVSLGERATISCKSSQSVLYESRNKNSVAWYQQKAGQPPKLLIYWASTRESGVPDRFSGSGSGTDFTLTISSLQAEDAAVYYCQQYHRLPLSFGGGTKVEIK

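The starting antibody came from a phage panning campaign against this peptide. These sequences belong to a second round, designed from the earlier measurements on random variants of the parent. Group labels follow the data file (Ctrl: baseline library sampled from a position-specific scoring matrix, with some repeated check sequences; En: ensemble of fine-tuned language models; GP: Gaussian process model; HC: hill climbing; Gen: genetic algorithm; Gibbs: Gibbs sampling; a sequence that several methods proposed may carry one label only). The scFvs were displayed on barcoded MATa yeast, the peptide on MATalpha yeast. Mating (16 h, 30 °C) was followed by selection of diploids and sequencing of their barcodes. Read counts were normalised to the haploid input and turned into Kd by a linear fit to BCL2-family pairs of known affinity, for each replicate. Each pool was mated in six replicate cultures.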

The parent's light chain CDRs are KSSQSVLYESRNKNSVA, WASTRES, QQYHRLPLS; each variant's own CDRs replace them letter for letter.
Kd is apparent (estimated from mating counts) and averaged on the log scale over replicates with a signal. Smaller is tighter.
"no signal" marks a missing value. The strain was present, yet no cells mated with the target were sequenced in any replicate, which points to weak or no binding.
The authors averaged sequences with at least three values out of six and counted those with two or fewer as poor binders.

CDR-L1	CDR-L2	CDR-L3	group	Kd (apparent)	replicates with signal
KSQQSEPYESRNKNSVA	NASQRES	QQYHRLPLS	GP_Gen	350 pM	6 of 6
KLSQSNLYESRNKNSVA	DASTRES	QQYHRLPLS	GP_Gen	950 pM	6 of 6
KHSQSVLYESRNKNSVA	WASTRES	QQYHCLPLS	Ctrl	no signal	0 of 6
DSNQSVIYESRNKNSVA	EASTRES	QQYHRLPLS	Ctrl	22 nM	1 of 6
KSSQSKLGESLNKNSVA	WAGTRES	QQYSRLPLS	Ctrl	59 nM	4 of 6
KSEWSVLYESNNKNSVA	HASTRED	QQYHRLPLS	GP_HC	9.8 nM	6 of 6
KSSVPVLYESRNKNSVA	WASTRES	QQYHRLPLS	Ctrl	49 nM	5 of 6
KITTSLYRWGSDKQAVA	EENIRAR	QQYFRLPFS	En_Gibbs	2.4 nM	6 of 6
KVSFSVMLESRNKNAVA	EASTRES	QDYHRLPLS	GP_Gibbs	2.2 nM	6 of 6
KSSQSVLYESRNKNSVA	WKSTRFS	QQAHRLPLS	Ctrl	no signal	0 of 6
KLPQSEPYESRNKNSVA	NASTRES	QQYHRLPLS	GP_Gen	920 pM	6 of 6
KSSTSVLYESRNKNSVA	WGSTRES	QQYHRLPLS	Ctrl	170 nM	4 of 6
KIGMTLNTLMHTKNNVA	DLVTRED	QQYHRLPLS	En_Gen	3.7 nM	6 of 6
KSSQSVLYESRNKNSVA	WASKREL	QQYHRLPLS	Ctrl	110 nM	2 of 6
KMQQSVLYESRNKNSVA	AASTRES	QQYHRLPLS	Ctrl	440 pM	6 of 6
KISTSVYYESYPKNSVA	WASTRES	QQYHRLWLS	Ctrl	380 nM	6 of 6
KSSQSVLYESRNSNSVA	NASTRES	QQYHRLPLS	Ctrl	4.1 nM	6 of 6
KLSQSELYESRNKNSVA	EASTRLS	QQYHRLPLS	GP_Gen	1.4 nM	6 of 6
KSSQSVLYESRNKNSVA	WASTRES	QQYHRLPTS	Ctrl	no signal	0 of 6
TISQSVNMTSHGRNSVA	QAEMRET	QQYDRLPLS	En_HC	33 nM	6 of 6
KLSQSYEYESRNSNSVA	NASQREH	QQYHRLPLR	GP_Gibbs	5.0 nM	6 of 6
HVSPSVLYESRNGNSVA	NASTRES	QQYHRLPLS	GP_HC	610 pM	6 of 6
MMSQVTMSGMRHRNNVA	QTSTREP	QQYDRLPLV	En_Gen	7.0 nM	6 of 6
KSSQSVLYESRNKNSVA	WASTRES	QEYHMLPNS	Ctrl	no signal	0 of 6
KISQLVNFLGKNKNSVA	QMSTRES	QQYDRLPLS	En_HC	81 nM	6 of 6
KLEQSYLYESRNKNSVA	NASTRES	QQYHRLPLS	GP_Gen	520 pM	6 of 6
MISNVMNTLTRQGNNVA	DLEERED	QQYFRLPLS	En_Gen	6.0 nM	6 of 6
KVSQSFDYESRNKNSVA	DASTRES	QQYHRLPLS	GP_Gen	750 pM	6 of 6
KLSQSWGYESRNKNSVA	EASTRES	QQYHRLPLS	GP_Gen	880 pM	6 of 6
KVSPSMLYEQRNKNSVA	SASTREN	QQYHRLPLS	GP_Gibbs	880 pM	6 of 6
KLSQSVLYETRNKNSVA	NASQRES	QQYHRLPLS	GP_Gen	800 pM	6 of 6
KLQQSVLMGSRNKNSVA	EASTRMV	QAYHRLPLS	GP_Gibbs	2.6 nM	6 of 6
KLSQSQLYESRNKNSVA	HASTRCS	QQYHRLPLS	GP_Gen	1.9 nM	6 of 6
KLMQSWDYESRNKNSVA	DASKRMQ	QQYHRLPLS	GP_Gibbs	1.1 nM	6 of 6
KLQQLMLYESRMKNSVA	NASTRGS	QQYHRLPLS	GP_Gibbs	1.7 nM	6 of 6
KSLQSVLYESRNKNSVA	NASTRED	QQYGRLPLS	GP_HC	110 nM	6 of 6

The remaining entries, values ahead:

Kd (apparent)	replicates with signal	CDR-L1	CDR-L2	CDR-L3	group
6.1 nM	6 of 6	KVPQSELYESRNKNSVA	NASQRES	QQYHRLPLS	GP_Gen
150 nM	1 of 6	KSSQSVLYESRNKNCVA	WASTRES	QQYHRLPLS	Ctrl
2.1 nM	6 of 6	KMSQSYLMESRNCNSVA	NASTRLW	QQYHRLPLS	GP_Gibbs
870 pM	6 of 6	KVSQSVMMGSRNKNSVA	NASQREQ	QQYHRLPLS	GP_Gibbs
890 nM	1 of 6	KSSQSVLYESRNKASVA	AASTGES	QQYHRLPLS	Ctrl
140 nM	4 of 6	MVSQLMLWGHLAKNSIA	EAQTRIN	QQYDRLPLF	En_Gen
520 pM	6 of 6	KQSQSVDYESRNKNSVA	DASTRES	QQYHRLPLS	GP_Gen
1.5 nM	5 of 6	KSSQSWLYESRNKNSVA	EASTRES	DQYHRLPLS	Ctrl
3.9 nM	6 of 6	KISQSVLAESRNKNSVA	WASTRES	QTYHRLPLS	Ctrl
570 pM	6 of 6	KLHQSVLYESRNKNSVA	NASTRMS	QQYHRLPLS	GP_Gen
1.6 nM	6 of 6	KLRQSTLYESRNPNSVA	HASTRES	QQYHRLPLS	GP_HC
860 pM	6 of 6	KLSQSHLYESRNKNSVA	NASTRCS	QQYHRLPLS	GP_Gen
2.6 nM	6 of 6	KLPQATMLESVSKNSVA	ELSTRGS	QQYHRLPLS	En_HC
2.0 nM	6 of 6	KVSQSHLYESRNKNSVA	NASYRES	QQYHRLPLS	GP_Gen
3.0 nM	6 of 6	KLYSVTGTEKIQGNNVA	EMETRER	QQYNRLPLS	En_Gen
650 pM	6 of 6	KLPQSHLYESRNKNSVA	SASTRES	QQYHRLPLS	GP_Gen
29 nM	4 of 6	ILYDSVGTLARNKNSVA	DNSTRES	QQYDRLPLS	En_HC
1.9 nM	6 of 6	WLSQSVEYQSRNKNAVA	SASTRES	QQYHRLPLS	GP_Gibbs
4.6 nM	6 of 6	KLSQSTLYESRNPNSVA	WASTRES	QQYHRLPLS	GP_HC
77 nM	6 of 6	MLSDLVKMGSRNTNSVA	DNSTRGS	QQYDRLPLM	En_HC
no signal	0 of 6	KSSQSVLTESRNKNSVA	WASTHES	QMYHRLPLS	Ctrl
28 nM	6 of 6	NFSQMVLTGSTLKNSVA	HANTREE	QQYHRLPLI	En_HC
340 pM	6 of 6	SLYDATGMESRNKNPIA	DVSTRPD	QQYHRLPLS	En_HC
1.0 µM	2 of 6	KLKTMPGEIPKEGNSIA	HAELRTP	QQYHRLPLI	En_Gibbs
660 pM	6 of 6	KMSQSVLYESRNKNSVA	NASTREE	QQYHRLPLS	GP_Gen
1.5 nM	6 of 6	KSTQSVLYESRNKNSVA	EASTRES	QQYHRLPLS	Ctrl
17 nM	6 of 6	MLKMPNHEVNFDKNSVA	DRTTKES	QQYHRLPIT	En_Gibbs
12 nM	6 of 6	SITVIDNPGSQLHNNIA	QGSCRAE	QQYIRLPLI	En_Gibbs
860 pM	6 of 6	KLAQSELYESRNKNSVA	NASTRES	QQYHRLPLS	GP_Gen
73 nM	3 of 6	KSSQSVLYESRNNNSVA	WASTRES	QQYHRLPLS	Ctrl
26 nM	6 of 6	KISQSVLYESNNKNSVA	AASTPES	QQYHRLPLS	Ctrl
450 pM	6 of 6	ALSQSVLYESRNKNSVA	GASTRES	QQYHRLPLS	GP_Gen
3.9 nM	6 of 6	TLYGLTNSMLKNKDNVA	EMSTREA	QQYDRLPLA	En_Gen
12 nM	6 of 6	ALSMMNFYGYRDENGIA	GADELAK	QQYYRLPLV	En_Gibbs
16 nM	5 of 6	RLNDFQYAITGDNYAIA	NARETLM	QQYMRLPLT	En_Gibbs
710 pM	6 of 6	KMEQGDLYESRNKNSVA	GASTRES	QQYHRLPLS	GP_HC

Excerpt, the first 9 entries:

{"CDR-L1": "KSQQSEPYESRNKNSVA", "CDR-L2": "NASQRES", "CDR-L3": "QQYHRLPLS", "group": "GP_Gen", "Kd (apparent)": "350 pM", "replicates with signal": "6 of 6"}
{"CDR-L1": "KLSQSNLYESRNKNSVA", "CDR-L2": "DASTRES", "CDR-L3": "QQYHRLPLS", "group": "GP_Gen", "Kd (apparent)": "950 pM", "replicates with signal": "6 of 6"}
{"CDR-L1": "KHSQSVLYESRNKNSVA", "CDR-L2": "WASTRES", "CDR-L3": "QQYHCLPLS", "group": "Ctrl", "Kd (apparent)": "no signal", "replicates with signal": "0 of 6"}
{"CDR-L1": "DSNQSVIYESRNKNSVA", "CDR-L2": "EASTRES", "CDR-L3": "QQYHRLPLS", "group": "Ctrl", "Kd (apparent)": "22 nM", "replicates with signal": "1 of 6"}
{"CDR-L1": "KSSQSKLGESLNKNSVA", "CDR-L2": "WAGTRES", "CDR-L3": "QQYSRLPLS", "group": "Ctrl", "Kd (apparent)": "59 nM", "replicates with signal": "4 of 6"}
{"CDR-L1": "KSEWSVLYESNNKNSVA", "CDR-L2": "HASTRED", "CDR-L3": "QQYHRLPLS", "group": "GP_HC", "Kd (apparent)": "9.8 nM", "replicates with signal": "6 of 6"}
{"CDR-L1": "KSSVPVLYESRNKNSVA", "CDR-L2": "WASTRES", "CDR-L3": "QQYHRLPLS", "group": "Ctrl", "Kd (apparent)": "49 nM", "replicates with signal": "5 of 6"}
{"CDR-L1": "KITTSLYRWGSDKQAVA", "CDR-L2": "EENIRAR", "CDR-L3": "QQYFRLPFS", "group": "En_Gibbs", "Kd (apparent)": "2.4 nM", "replicates with signal": "6 of 6"}
{"CDR-L1": "KVSFSVMLESRNKNAVA", "CDR-L2": "EASTRES", "CDR-L3": "QDYHRLPLS", "group": "GP_Gibbs", "Kd (apparent)": "2.2 nM", "replicates with signal": "6 of 6"}

Empty control strains, which show no peptide, gave a signal in 4% of pairings with all light chain designs; the median was 430 nM and 95% of these signals were weaker than 38 nM. No background was subtracted.
The parent sequence was in this pool as ten entries: three were never detected, three once, and four in most replicates, with averages from 2.2 nM to 240 nM.
The range of this assay differs from that of the first round, and the authors advise against merging the two.